The source of these data is PubChem BioAssay AID652039 (The Scripps Research Institute Molecular Screening Center, 2013).

Sequences of proteins named here, by UniProt entry; tags and fusion partners are left off.
UniProt P49862, whole entry: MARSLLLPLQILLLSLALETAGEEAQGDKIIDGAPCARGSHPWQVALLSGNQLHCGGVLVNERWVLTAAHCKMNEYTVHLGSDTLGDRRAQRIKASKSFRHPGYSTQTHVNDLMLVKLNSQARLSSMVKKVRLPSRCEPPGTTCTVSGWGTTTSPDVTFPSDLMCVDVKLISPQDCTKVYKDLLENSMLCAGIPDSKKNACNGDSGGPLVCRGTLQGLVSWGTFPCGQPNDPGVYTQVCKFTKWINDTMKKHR

The structures appear in SMILES notation. The list shows a part of the results, in another mix than the full data. Some salts and complexes are drawn in separate pieces, as the source files them; their charges need not balance. Activity calls are given as the source filed them.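 The calls were made as follows: active = activation above the mean of all tested compounds plus 3 SD, computed per campaign excluding outliers beyond control limits (cut at about 13% in these data); inactive = the rest.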

The experiment addresses Kallikrein-7 (Homo sapiens) (UniProt P49862). As to the kind of experiment: proKLK7 zymogen activators, primary screen, biochemical, fluorescence intensity (AID 652039). The note with it: purified proKLK7, EDANS-DABCYL substrate fluorescence; at 7 µM; active compounds read high; 100% is mature enzyme control, 0% vehicle.
As for `O=[N+]([O-])c1cc([N+](=O)[O-])c(-c2cnn(-c3ccccc3)c2)c([N+](=O)[O-])c1`, the activation is inactive: 0.4%. As to `Cc1nc2ccc3ccccc3c2s1.O=[N+]([O-])c1cc([N+](=O)[O-])c(O)c([N+](=O)[O-])c1`, the activation was inactive: -0.03%.

Take `O=[N+]([O-])c1cc([N+](=O)[O-])c(-n2nnc3ccccc32)c([N+](=O)[O-])c1`: the activation is inactive: 0.48%.

As for `CN(Cc1cccnc1)C(=O)COc1ccc(Cl)c(Cl)c1.O=[N+]([O-])c1cc([N+](=O)[O-])c(O)c([N+](=O)[O-])c1`, the activation is inactive: -0.38%.

Turning to `COc1ccccc1OP(C)(=O)Nc1c(C)cccc1C` (centres undefined), the activation is inactive: 0.76%.

Regarding `CN1CCCCC1COC(=O)C1(O)c2ccccc2CCc2ccccc21` (centres undefined), the activation is inactive: -0.11%. For `COc1ccc(-c2ccccn2)cc1.O=[N+]([O-])c1cc([N+](=O)[O-])c(O)c([N+](=O)[O-])c1` the value was inactive: -0.38%; for `CCCOc1ccc(NP(C)(=O)Oc2ccc(Cl)cc2)cc1` (centres undefined), inactive: 0.4%; for `CP(=O)(Nc1ccc(SC(F)(F)F)cc1)Oc1ccccc1` (centres undefined), inactive: -0.35%. The result for `O=[N+]([O-])c1cc([N+](=O)[O-])c(Nc2nnnn2CCO)c([N+](=O)[O-])c1` reads inactive: -0.72%; that for `CCOC(=O)C(CC)C1=NC(C)(C)Cc2ccccc21.O=[N+]([O-])c1cc([N+](=O)[O-])c(O)c([N+](=O)[O-])c1` (centres undefined), inactive: 0.46%; that for `CC1=NCCc2c1[nH]c1ccccc21.O=[N+]([O-])c1cc([N+](=O)[O-])c(O)c([N+](=O)[O-])c1`, inactive: 12%. `O=C(O)c1cccc(Nc2c([N+](=O)[O-])cc([N+](=O)[O-])cc2[N+](=O)[O-])c1`: the activation was inactive: 0.2%.

Regarding `Cc1ccc(C)c(NP(C)(=O)Oc2ccccc2)c1` (centres undefined), the activation was inactive: -0.13%.

Take `Cc1cc(C)cc(OP(C)(=O)Nc2ccccn2)c1` (centres undefined): the activation was inactive: -0.77%. On to `CP(=O)(Nc1cccc(Br)c1)Oc1ccccc1` (centres undefined), for which the activation was inactive: 0.36%. The result for `COc1ccccc1OP(C)(=O)Nc1cccc(Br)c1` (centres undefined) reads inactive: -0.59%; that for `CCOC(=O)c1ccc(NP(C)(=O)Oc2cc(C)cc(C)c2)cc1` (centres undefined), inactive: 0.11%. For `Cc1cc(C)cc(OP(C)(=O)Nc2ccc(C)cc2C)c1` (centres undefined) the value was inactive: -0.22%.

For `COc1ccccc1-c1ccccn1.O=[N+]([O-])c1cc([N+](=O)[O-])c(O)c([N+](=O)[O-])c1`, the activation was inactive: 0.19%. On to `CCN(CC)CCCOC(=O)C(O)(c1ccccc1)c1ccccc1`, for which the activation is inactive: -0.3%. For `COc1ccccc1OP(C)(=O)Nc1ccc(C)cc1` (centres undefined) the value was inactive: -0.81%. With `Cc1ccc(NP(C)(=O)Oc2ccccc2)c(C)c1` (centres undefined), the activation is inactive: -0.22%.

On to `CCOC(=O)c1ccc(NP(C)(=O)Oc2ccccc2)cc1` (centres undefined), for which the activation was inactive: -0.42%. In the case of `Cc1cc(C)cc(OP(C)(N)=O)c1` (centres undefined), the activation is inactive: 0.18%. Regarding `COc1ccccc1OP(C)(=O)Nc1cc(Cl)ccc1C` (centres undefined), the activation was inactive: 0.21%. For `COc1ccc(OP(C)(=O)Nc2cccc(F)c2)cc1` (centres undefined), the activation was inactive: 0.33%. The result for `O=[N+]([O-])c1cc([N+](=O)[O-])c(Nc2cccnc2)c([N+](=O)[O-])c1` reads inactive: -0.05%. With `O=[N+]([O-])c1ccc2c(c1)C=Nc1ccccc1O2`, the activation is inactive: 0.29%. The result for `CC(C)(C)c1ccc(OP(C)(=O)Nc2ccc(SC(F)(F)F)cc2)cc1` (centres undefined) reads inactive: 0.24%.

Regarding `Cc1cccc(C)c1OP(C)(N)=O` (centres undefined), the activation was inactive: -0.22%. On to `CP(=S)(Nn1cnnc1)Oc1ccccc1` (centres undefined), for which the activation is inactive: -0.01%.

As to `CP(=O)(Nc1ccccc1Br)Oc1ccccc1` (centres undefined), the activation was inactive: 0.33%. For the compound `COc1ccccc1OP(C)(=O)Nc1ccccc1` (centres undefined), the activation is inactive: 0.01%.

In the case of `CCOC(=O)c1ccc(NP(C)(=O)Oc2ccc(OC)cc2)cc1` (centres undefined), the activation was inactive: 0.11%. For `O=[N+]([O-])c1cc([N+](=O)[O-])c(O)c([N+](=O)[O-])c1.c1ccc(Oc2ccncc2)cc1` the value was inactive: -0.27%; for `CCOP(C)(=S)SCC(=O)NC(C)C(=O)O` (centres undefined), inactive: 0.61%.

With `CP(=O)(Nc1ccccn1)Oc1ccc(Cl)cc1` (centres undefined), the activation was inactive: -0.23%.

In the case of `Cc1cccc(C)c1OP(C)(=O)Nc1ccc(SC(F)(F)F)cc1` (centres undefined), the activation is inactive: -0.05%. In the case of `CP(=O)(Nc1ccc(SC(F)(F)F)cc1)Oc1ccc(Cl)cc1` (centres undefined), the activation was inactive: 0.69%. On to `CP(=O)(Oc1ccccc1)OC(c1ccccc1)C(F)(F)F` (centres undefined), for which the activation is inactive: 0.38%.

As for `CP(=O)(NC(=O)Nc1ccccc1)Oc1ccccc1` (centres undefined), the activation is inactive: 0.03%. For the compound `CCc1ccc(OP(C)(=O)N2CCN(c3ccc([N+](=O)[O-])cc3)CC2)cc1` (centres undefined), the activation is inactive: 0.91%. For `Cc1cc(C)cc(OP(C)(=O)Nc2ccc(SC(F)(F)F)cc2)c1` (centres undefined) the value was inactive: 0.37%; for `COc1ccccc1OP(C)(=O)Nc1ccccc1Br` (centres undefined), inactive: -0.29%; for `CC(C)(C)c1ccc(OP(C)(=O)O)cc1`, inactive: -0.35%.

With `CP(=O)(Nc1ccc(Cl)cc1)Oc1ccc(F)cc1` (centres undefined), the activation was inactive: -0.54%.

With `CN(C)C(=O)c1c([N+](=O)[O-])cc([N+](=O)[O-])cc1[N+](=O)[O-]`, the activation was inactive: 0.02%. As to `CCN(CC)CC(O)COC(=O)C(O)(c1ccccc1)C1CCCCC1` (centres undefined), the activation was inactive: 0.23%. As to `COc1ccc(OP(C)(=O)Nc2ccc(Br)cc2)cc1` (centres undefined), the activation is inactive: -0.11%. `COc1ccccc1OP(C)(=O)Nc1c(C)n(C)n(-c2ccccc2)c1=O` (centres undefined): the activation is inactive: -0.14%.

As for `O=C(OCCCN1CCCC1)C(O)(c1ccccc1)C1CCCCC1` (centres undefined), the activation is inactive: -0.23%.

With `CP(=O)(Oc1ccccc1)N1CCOC1=O` (centres undefined), the activation was inactive: 0.24%. On to `CCc1ccc(OP(C)(=O)Nc2cccnc2)cc1` (centres undefined), for which the activation was inactive: -0.54%. Turning to `Nc1ccc2c(ccc3cccnc32)n1.O=[N+]([O-])c1cc([N+](=O)[O-])c(O)c([N+](=O)[O-])c1`, the activation was active: 13.6%. For `CCOC(=O)c1ccc(NP(C)(=O)Oc2ccc(Cl)cc2)cc1` (centres undefined), the activation was inactive: 0.07%. The result for `CP(=O)(OC12CC3CC(CC(C3)C1)C2)OC12CC3CC(CC(C3)C1)C2` reads inactive: -0.44%; that for `CCCCCCCCCCCCCCCC1C[N+](C)(C)CCOP(C)(=O)O1` (centres undefined), inactive: -0.05%; that for `CP(=O)(Nc1ccc(Cl)cc1Cl)Oc1ccccc1` (centres undefined), inactive: -0.54%.

Take `CP(=O)(OCCOc1ccccc1)OCCOc1ccccc1`: the activation was inactive: -0.05%. Consider `O=C1C(O)=C([N+](=O)[O-])C(=O)C(O)=C1[N+](=O)[O-]`, for which the activation is inactive: 0.32%.

For the compound `Cc1cc(C)cc(OP(C)(=O)Nc2cccc(C(F)(F)F)c2)c1` (centres undefined), the activation is inactive: -0.15%. For `COc1ccccc1OP(C)(=O)Nc1ccc(C)c(C)c1` (centres undefined) the value was inactive: 0.68%; for `COc1ccc(OP(C)(=O)Nc2ccccc2Br)cc1` (centres undefined), inactive: 0.05%; for `Cc1c(NP(C)(=O)Oc2ccc(C(C)C)cc2)c(=O)n(-c2ccccc2)n1C` (centres undefined), inactive: 0.25%.

`O=[N+]([O-])c1cc([N+](=O)[O-])c(Nc2ccccn2)c([N+](=O)[O-])c1`: the activation was inactive: 0.42%. As to `CP(=O)(Nc1ccccn1)Oc1ccccc1` (centres undefined), the activation is inactive: -0.41%. Turning to `COc1ccccc1OP(C)(=O)Nc1ccc(C)cc1C` (centres undefined), the activation is inactive: -0.19%. For `CCc1ccc(OP(C)(=O)O)cc1` the value was inactive: -0.26%. Take `COc1ccccc1OP(C)(=O)Nc1ccc(Br)cc1` (centres undefined): the activation was inactive: 0.24%. The result for `COc1ccc(OP(C)(=O)Nc2ccccn2)cc1` (centres undefined) reads inactive: 0.11%.

For the compound `CN(C)CCOC(=O)C(O)(c1ccccc1)C1CCCC1` (centres undefined), the activation is inactive: 0.15%.

With `O=C(OC1CN2CCC1CC2)c1ccc([N+](=O)[O-])cc1` (centres undefined), the activation was inactive: -0.55%. For `O=C(OCCN1CCN(CCOCc2ccccc2)CC1)C(O)(c1ccccc1)c1ccccc1` the value was inactive: -0.2%; for `COc1ccc2c(c1O)-c1c(O)c(OC)cc3c1[C@H](C2)[N+](C)(C)CC3.O=[N+]([O-])c1cc([N+](=O)[O-])c([O-])c([N+](=O)[O-])c1[O-]`, inactive: 8.35%; for `O=[N+]([O-])c1cc([N+](=O)[O-])c(Nc2ccc(Cl)cc2)c([N+](=O)[O-])c1`, inactive: -0.35%. With `CP(=O)(Nc1ccccc1F)Oc1ccccc1` (centres undefined), the activation was inactive: 0.09%. The result for `CC(C)c1ccc(OP(C)(=O)Nc2ccc(SC(F)(F)F)cc2)cc1` (centres undefined) reads inactive: -0.26%; that for `Cc1c([N+](=O)[O-])cc([N+](=O)[O-])c(Br)c1[N+](=O)[O-]`, inactive: 0.77%; that for `CCN(CC)CCCOC(=O)C(O)(c1ccccc1)C1CCCCC1` (centres undefined), inactive: -1.04%. Turning to `CP(=O)(Nc1ccccc1)Oc1ccc(F)cc1` (centres undefined), the activation was inactive: 0.43%. For the compound `CCCCCOc1ccc(NP(C)(=O)Oc2ccc(Cl)cc2Cl)cc1` (centres undefined), the activation is inactive: -0.42%. Consider `O=[N+]([O-])c1cc([N+](=O)[O-])c(OC2CCCCC2O)c([N+](=O)[O-])c1` (centres undefined), for which the activation was inactive: -0.18%. `CCN(CC)CCCNc1ccccc1[N+](=O)[O-].O=[N+]([O-])c1cc([N+](=O)[O-])c(O)c([N+](=O)[O-])c1`: the activation is inactive: 0.02%.

Turning to `CCOC(=O)c1ccc(NP(C)(=O)Oc2ccc(F)cc2)cc1` (centres undefined), the activation was inactive: 0.45%. Consider `COc1ccc(OP(C)(=O)Nc2ccc(SC(F)(F)F)cc2)cc1` (centres undefined), for which the activation was inactive: -0.68%. For the compound `O=[N+]([O-])c1ccc(OP2(=O)COCCO2)cc1` (centres undefined), the activation is inactive: 0.25%. Take `O=[N+]([O-])c1cc([N+](=O)[O-])c(NCC2CCS(=O)(=O)C2)c([N+](=O)[O-])c1` (centres undefined): the activation is inactive: 0.42%. Regarding `Cc1cc(-c2cccc3ccccc23)c(C)cn1.O=[N+]([O-])c1cc([N+](=O)[O-])c(O)c([N+](=O)[O-])c1`, the activation is inactive: -0.18%. Turning to `Cc1c(C(c2ccc3c(c2)OCO3)c2c(C)n(C)n(-c3ccccc3)c2=O)c(=O)n(-c2ccccc2)n1C.O=[N+]([O-])c1cc([N+](=O)[O-])c(O)c([N+](=O)[O-])c1`, the activation was inactive: 0.23%. Take `COc1ccc(OP(C)(=O)Nc2cccc(Br)c2)cc1` (centres undefined): the activation is inactive: -0.65%. For `CN(C)CCOC(=O)C(O)(c1ccccc1)C1CCCCC1` (centres undefined) the value was inactive: -0.44%; for `COc1ccc(NP(C)(=O)Oc2ccccc2OC)cc1` (centres undefined), inactive: 0.46%; for `CP(=O)(Nc1ccc2c(c1)OCCO2)Oc1ccccc1` (centres undefined), inactive: -0.22%. For `Cc1ccccc1NP(C)(=O)Nc1ccccc1C` the value was inactive: -0.24%. The result for `O=[N+]([O-])c1cc([N+](=O)[O-])c(C(F)(F)F)c([N+](=O)[O-])c1O` reads inactive: 0.34%. As for `CP(=O)(Nc1ccc(SC(F)(F)F)cc1)Oc1ccc(F)cc1` (centres undefined), the activation was inactive: 0.08%. `CCOP(C)(=S)SCC(=O)NC(C)(CC)C(=O)O` (centres undefined): the activation is inactive: 0.42%.

For `CCOP(=O)(CC)OCC`, the activation was inactive: 0.49%.
